Data: patent US5766848A (Synaptic Pharmaceutical Corporation, priority 1994, dated 1998)

Sequences of proteins named here, by UniProt entry; tags and fusion partners are left off. A change or cut given only in a name is not applied to a line headed by its entry.
UniProt P30531: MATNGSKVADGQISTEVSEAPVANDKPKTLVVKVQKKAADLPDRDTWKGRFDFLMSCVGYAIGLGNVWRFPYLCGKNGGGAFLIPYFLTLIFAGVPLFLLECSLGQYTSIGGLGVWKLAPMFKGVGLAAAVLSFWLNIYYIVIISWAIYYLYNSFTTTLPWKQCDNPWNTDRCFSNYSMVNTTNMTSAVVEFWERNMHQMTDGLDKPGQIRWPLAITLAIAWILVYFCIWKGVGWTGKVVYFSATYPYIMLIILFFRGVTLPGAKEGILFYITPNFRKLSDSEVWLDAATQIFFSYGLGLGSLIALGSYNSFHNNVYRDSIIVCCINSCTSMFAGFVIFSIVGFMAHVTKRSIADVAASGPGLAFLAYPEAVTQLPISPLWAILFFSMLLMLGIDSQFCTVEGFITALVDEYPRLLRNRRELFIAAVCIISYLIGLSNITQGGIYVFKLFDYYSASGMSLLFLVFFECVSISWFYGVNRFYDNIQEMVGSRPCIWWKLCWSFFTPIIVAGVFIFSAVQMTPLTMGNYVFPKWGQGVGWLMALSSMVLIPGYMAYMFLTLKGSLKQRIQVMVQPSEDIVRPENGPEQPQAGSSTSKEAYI
UniProt P48065: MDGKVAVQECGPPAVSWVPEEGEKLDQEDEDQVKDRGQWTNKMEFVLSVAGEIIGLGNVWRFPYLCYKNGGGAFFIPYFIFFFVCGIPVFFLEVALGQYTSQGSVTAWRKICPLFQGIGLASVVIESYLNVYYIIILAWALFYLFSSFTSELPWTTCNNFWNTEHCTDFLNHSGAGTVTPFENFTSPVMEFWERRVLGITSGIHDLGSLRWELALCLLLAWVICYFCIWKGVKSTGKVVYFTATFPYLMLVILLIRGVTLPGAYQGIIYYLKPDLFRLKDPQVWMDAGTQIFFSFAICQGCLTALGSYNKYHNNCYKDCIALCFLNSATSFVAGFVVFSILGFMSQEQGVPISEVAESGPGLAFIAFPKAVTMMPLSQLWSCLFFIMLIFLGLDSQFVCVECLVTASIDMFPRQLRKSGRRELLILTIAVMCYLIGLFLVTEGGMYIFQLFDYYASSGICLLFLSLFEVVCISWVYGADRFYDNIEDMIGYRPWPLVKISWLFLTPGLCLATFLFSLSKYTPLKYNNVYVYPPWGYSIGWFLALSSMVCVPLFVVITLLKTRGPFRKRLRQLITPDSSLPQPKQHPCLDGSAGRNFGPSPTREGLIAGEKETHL

Key:
[1] = target: human GAT-1 (Homo sapiens, UniProt P30531); details: read-out: IC50, human GAT-1, inhibition of [3H]GABA uptake; Table 9; stable LM(tk-) cell line; means ± S.E.M.
[2] = target: T1, human BGT-1 (Homo sapiens, UniProt P48065); details: read-out: IC50, human BGT-1, inhibition of [3H]GABA uptake; Table 9; stable LM(tk-) cell line; means ± S.E.M.
T1 sequence (P48065 1-614 C10Y): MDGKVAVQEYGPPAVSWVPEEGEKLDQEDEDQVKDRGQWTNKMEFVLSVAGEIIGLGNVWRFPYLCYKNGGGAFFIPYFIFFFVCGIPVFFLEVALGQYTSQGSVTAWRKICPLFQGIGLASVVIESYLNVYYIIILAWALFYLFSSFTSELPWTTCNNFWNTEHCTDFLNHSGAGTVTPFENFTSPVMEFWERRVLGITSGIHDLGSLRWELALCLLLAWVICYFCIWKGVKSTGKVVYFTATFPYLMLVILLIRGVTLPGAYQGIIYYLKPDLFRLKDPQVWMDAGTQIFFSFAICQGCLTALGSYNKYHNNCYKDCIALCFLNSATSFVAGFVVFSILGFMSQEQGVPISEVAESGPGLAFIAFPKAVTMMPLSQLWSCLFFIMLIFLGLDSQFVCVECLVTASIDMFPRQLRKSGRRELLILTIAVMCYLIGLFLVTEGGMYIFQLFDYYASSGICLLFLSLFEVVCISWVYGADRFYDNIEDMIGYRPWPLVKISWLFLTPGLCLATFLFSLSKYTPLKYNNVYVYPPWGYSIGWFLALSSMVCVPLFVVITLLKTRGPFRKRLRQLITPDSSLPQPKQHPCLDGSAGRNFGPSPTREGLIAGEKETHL

`O=C(O)C1CCCN(CCC=C(c2ccccc2)c2ccccc2)C1` (centres unmarked) [SK&F 89976-A, N-(4,4-diphenyl-3-butenyl)-3-piperidinecarboxylic acid] showed an IC50 [1] of 0.00013 ± 1e-05 mM and an IC50 [2] of 7.21 ± 3.63 mM.
